Source: ChEMBL document CHEMBL4627285, “Multi-step parallel synthesis enabled optimization of benzofuran derivatives as pan-genotypic non-nucleoside inhibitors of HCV NS5B” (Bioorg Med Chem Lett, 2020)

Experiments:
[1] = Non-nucleoside inhibition of NS5B polymerase in HCV genotype 4a by Taqman probe based RT-PCR analysis
[2] = Non-nucleoside inhibition of NS5B polymerase in HCV genotype 1a by Taqman probe based RT-PCR analysis
[3] = Non-nucleoside inhibition of NS5B polymerase in HCV genotype 3a by Taqman probe based RT-PCR analysis
[4] = Non-nucleoside inhibition of NS5B polymerase in HCV genotype 1b by Taqman probe based RT-PCR analysis
[5] = Non-nucleoside inhibition of NS5B polymerase in HCV genotype 2b by Taqman probe based RT-PCR analysis
[6] = Non-nucleoside inhibition of NS5B polymerase in HCV genotype 2a by Taqman probe based RT-PCR analysis

CNC(=O)c1c(-c2ccc(F)cc2)oc2cc(N(C)S(C)(=O)=O)c(-c3ccc4c(n3)-c3cc5c(F)cccc5n3CO4)cc12 [MK-8876]
EC50 [1]: 1.2 nM
EC50 [2]: 1.6 nM
EC50 [3]: 1.8 nM
EC50 [4]: 2.2 nM
EC50 [5]: 3.9 nM
EC50 [6]: 7.3 nM
